Values of other authors in patent US20150044136A1, “Ophthalmological treatment for michobial infections” (priority 2013, published 2015).

Conditions: forming a viscous solution; cited from earlier work

For pectin, the solubility in water is given as 20 parts of water.
